Assay results taken from ChEMBL document CHEMBL4043066, “Drug Discovery Targeting Bromodomain-Containing Protein 4” (J Med Chem, 2017).

Target: Bromodomain-containing protein 4 (Homo sapiens, UniProt O60885)
Assay: Inhibition of recombinant human N-terminal His6-tagged BRD4 bromodomain 1 expressed in Escherichia coli using biotinylated histone peptide as substrate after 60 mins by TR-FRET assay

| SMILES | K |
| --- | --- |
| Cc1noc(C)c1-c1cc(C(O)(c2cnccn2)c2c(F)cccc2F)c2[nH]c(=O)[nH]c2c1 (configuration not stated) | 2.7 nM |
| Cc1noc(C)c1-c1cc(-c2c(C3CC3)n[nH]c2C2CC2)c2[nH]c(=O)[nH]c2c1 | 3 nM |
